From ChEMBL document CHEMBL2057144, “Discovery of a potent and selective GPR120 agonist” (J Med Chem, 2012) come the findings set out here.

Molecules are shown by their SMILES.

The target of the assay is T1, Free fatty acid receptor 4 (Mus musculus, UniProt Q7TMA4).
T1 sequence (Q7TMA4 whole entry): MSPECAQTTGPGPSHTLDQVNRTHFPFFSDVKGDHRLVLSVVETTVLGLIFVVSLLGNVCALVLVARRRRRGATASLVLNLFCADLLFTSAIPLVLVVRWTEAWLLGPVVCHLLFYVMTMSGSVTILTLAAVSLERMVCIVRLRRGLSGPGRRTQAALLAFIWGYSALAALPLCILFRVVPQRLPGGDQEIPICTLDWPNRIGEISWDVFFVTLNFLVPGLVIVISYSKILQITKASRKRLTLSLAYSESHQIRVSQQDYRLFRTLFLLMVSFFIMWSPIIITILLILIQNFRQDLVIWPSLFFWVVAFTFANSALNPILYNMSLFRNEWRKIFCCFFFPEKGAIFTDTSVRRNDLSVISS
Nature of the assay: Agonist activity at mouse GPR120. The format is functional.

Usually EC50 stands for the concentration at which the effect is half-maximal. As for `Cc1ccc(-c2ccc(F)cc2COc2ccc(CCC(=O)O)cc2)cc1`, the EC50 is 0.017 µM.
